# High-throughput results as filed in PubChem.
# Only some compounds are listed: those with a hit (about 1.6% of all), similar ones and a draw of the others.
# Vif imaging: inhibitors of HIV Vif; inhibition, % at 7.49 µM; HEK293T cells, Vif self-association by quenched fluorescence, imaging, 24 h; 340,000 compounds, 0.35% hits; in the data active = inhibition above about 50%, passing the limit was not always enough
# CAL PDZ FP-1: CAL PDZ (human) peptide binding inhibition | Q9HD26 | purified CAL PDZ, TMR-peptide fluorescence polarization, 1 h | inhibition, % at 24.9 µM | 300,000 compounds, 0.92% hits;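 active = mean inhibition of at least 30% with at least half of replicates also reaching 30%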;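 also: 0% = DMSO neutral control and 100% = excess unlabeled competitor peptide PRC23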
# PglD inh: inhibitors of Campylobacter jejuni PglD acetyltransferase; inhibition, % at 12.5 µM; AID 602405; 360,000 compounds, 0.098% hits; purified PglD enzyme, DTNB colorimetric CoA detection; in the data active = inhibition above about 16%, passing the limit was not always enough
# UUG fidelity: modulators of start codon recognition fidelity in yeast; S. cerevisiae UUG-firefly luciferase reporter, luminescence/redox ratio; activity score, % at 18.7 µM; hit rate 0.13% among 350,000; AID 602363;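 active = replicate mean at a twofold rise or more, about +100% in these data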;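 note: firefly luciferase made from a UUG start codon reports start codon fidelity; reporter light over untreated wells divided by growth signal over untreated wells; some hits fall short of that in this replicate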
# ARNT-TACC3 inh: disrupts binding between human ARNT and TACC3; Q9Y6A5; AlphaScreen His-ARNT PAS-B/GST-TACC3 binding, luminescence; TACC3 fragment carries E629A point mutation; inhibition, % at 9.99 µM; 390,000 compounds, 0.66% hits;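 active = mean inhibition of replicates at least 50% and at least half of replicates each reaching 50%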;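 also: 0% = complete ARNT plus TACC3 wells and 100% = ARNT alone without TACC3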
# CAL PDZ FP-2: human CAL PDZ-peptide interaction inhibition; Q9HD26; purified CAL PDZ, TMR-peptide fluorescence polarization, 1 h; inhibition, % at 20 µM; 330,000 compounds, 0.02% hits;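 active = highest replicate inhibition of at least 40%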;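 also: plate controls were DMSO neutral control wells for no effect and unlabeled competitor peptide control wells for full effect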
#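 Material: tagged CAL PDZ protein CerCALP, purified; buffer or medium: sodium phosphate/NaCl buffer pH 7.4 with TCEP, IgG, Thesit; also added: fluorescent TMR peptide probe; schedule: 1 h incubation at room temperature before polarization reading; technique: fluorescence polarization from S- and P-plane intensities, G-factor corrected; control set: unlabelled peptide and DMSO controls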
# Active calls of the source: *; . = not tested or not shown.
# Short forms – A = Vif imaging; B = CAL PDZ FP-1; C = PglD inh; D = UUG fidelity; E = ARNT-TACC3 inh; F = CAL PDZ FP-2
CC(NC(=O)C1CCN(CCOc2ccc(Cl)cc2)CC1)c1cccc2ccccc12 (stereo not drawn)
  A: 66.0*	B: .	C: -1.4	D: -0.3	E: .	F: .
COc1ccc(CN2CCC(C(=O)NC(C)c3cccc4ccccc34)CC2)cc1 (stereo not drawn)
  A: .	B: .	C: -2.1	D: -28.1	E: .	F: .
O=C(/C=C/c1ccco1)NC(=S)Nc1cccc(C(=O)O)c1
  A: 7.7	B: -2.6	C: 0.3	D: -19.3	E: -34.0	F: -1.4
COc1cccc(NC(=S)NC(=O)/C=C/c2ccco2)c1
  A: 102.3*	B: .	C: -4.5	D: -10.9	E: 8.7	F: 0.1
Cc1ccc(C2CC(c3cccs3)=NN2C(=O)CCl)cc1 (stereo not drawn)
  A: 3.3	B: 91.3*	C: -4.7	D: -12.2	E: 12.0	F: .
CCC(=O)N1N=C(c2cccs2)CC1c1ccc(C)cc1 (stereo not drawn)
  A: -1.6	B: 0.8	C: 2.7	D: 5.8	E: -4.0	F: -0.9
CO[C@H]1CN(C)C(=O)c2cccc(C#N)c2OC[C@H]2O[C@H](CC[C@@H]2OC)CCN(C)C(=O)[C@H]1C
  A: .	B: .	C: -0.1	D: .	E: -25.6	F: .
COc1ccccc1Nc1nc(N)nc(CSc2ncccn2)n1
  A: -3.6	B: 69.5*	C: 6.5	D: -8.7	E: 2.6	F: -1.0
COc1ccc(N2CCN(Cc3nc(N)nc(Nc4ccccc4OC)n3)CC2)cc1
  A: 3.7	B: 1.2	C: 1.8	D: -3.7	E: 49.8*	F: -4.4
C[C@@H]1CN([C@H](C)CO)C(=O)c2cc(NC(=O)C3CCCCC3)ccc2O[C@@H](C)CCCCO[C@@H]1CN(C)S(=O)(=O)c1cn(C)cn1
  A: .	B: .	C: -0.8	D: -9.8	E: -5.3	F: .

# Reprinted at random: three compounds from above.
# Short forms – A = Vif imaging; B = CAL PDZ FP-1; C = PglD inh; D = UUG fidelity; E = ARNT-TACC3 inh; F = CAL PDZ FP-2
COc1ccccc1Nc1nc(N)nc(CSc2ncccn2)n1
  A: -3.6	B: 69.5*	C: 6.5	D: -8.7	E: 2.6	F: -1.0
COc1ccc(CN2CCC(C(=O)NC(C)c3cccc4ccccc34)CC2)cc1 (stereo not drawn)
  A: .	B: .	C: -2.1	D: -28.1	E: .	F: .
COc1ccc(N2CCN(Cc3nc(N)nc(Nc4ccccc4OC)n3)CC2)cc1
  A: 3.7	B: 1.2	C: 1.8	D: -3.7	E: 49.8*	F: -4.4

# Remaining list, next part.
# Short forms – A = Vif imaging; B = CAL PDZ FP-1; C = PglD inh; D = UUG fidelity; E = ARNT-TACC3 inh; F = CAL PDZ FP-2
CCC(=O)N(C)C[C@@H]1Oc2cc(C3=CCCC3)ccc2S(=O)(=O)N([C@@H](C)CO)C[C@@H]1C
  A: .	B: .	C: 2.8	D: 37.2	E: 25.5	F: .
O=C(CSc1ccc(-c2ccccn2)nn1)c1ccc([N+](=O)[O-])cc1
  A: 0.7	B: -2.8	C: .	D: .	E: 51.6*	F: -2.8
CCc1ccc(NC(=O)CSc2ccc(-c3ccccn3)nn2)cc1
  A: -1.1	B: -2.6	C: 0.6	D: -25.7	E: 50.7*	F: -2.6
O=C(CSc1ccc(-c2cccnc2)nn1)c1ccc([N+](=O)[O-])cc1
  A: 10.1	B: -1.1	C: .	D: .	E: -1.0	F: -2.3
CCOC(=O)c1ccccc1NC(=O)CSc1ccc(-c2ccccn2)nn1
  A: .	B: 50.7*	C: 6.3	D: -0.3	E: 64.4*	F: -1.9
CCc1ccc(NC(=O)CSc2ccc(-c3cccnc3)nn2)cc1
  A: -26.7	B: -4.9	C: 5.4	D: -4.2	E: 11.3	F: 0.7
CNC[C@H]1Oc2ccc(NS(=O)(=O)c3cccs3)cc2C(=O)N([C@@H](C)CO)C[C@H]1C
  A: .	B: .	C: 4.4	D: -3.3	E: -1.5	F: .
CCN1[C@@H]2c3ccc(C4=CCCC4)c(=O)n3C[C@H]1[C@H](CO)[C@H]2C(=O)N[C@@H](C)c1ccccc1
  A: .	B: .	C: 3.6	D: .	E: -4.7	F: .
CCN(CC)C(=O)CN1C(=O)c2cccc3cccc1c23
  A: -3.8	B: 36.7*	C: -1.5	D: 2.3	E: -13.4	F: .
Cc1cc(C)nc(NC(=S)Nc2cccc(F)c2)c1
  A: -0.3	B: 65.0*	C: 9.7	D: -31.1	E: -4.4	F: 0.0
Nc1c(N(CCC2=CCCCC2)C(=O)COc2ccc([N+](=O)[O-])cc2)c(=O)[nH]c(=O)n1Cc1ccccc1
  A: 7.5	B: 55.6*	C: -4.6	D: -23.4	E: 3.1	F: -0.6
CC(=O)c1ccc(OCC(=O)N(CCC2=CCCCC2)c2c(N)n(Cc3ccccc3)c(=O)[nH]c2=O)cc1
  A: -2.8	B: 24.0	C: -0.3	D: -12.6	E: 1.9	F: -1.0
COc1ccccc1CNC(=O)C[C@H]1CC[C@@H]2[C@H](COC[C@H](O)CN2Cc2cccc(-c3ccncc3)c2)O1
  A: .	B: .	C: -2.1	D: .	E: 1.5	F: .
COc1ccc(NC(=O)N(C)C[C@@H]2OCCCC[C@H](C)Oc3ccc(NS(=O)(=O)c4ccc(C)cc4)cc3C(=O)N([C@H](C)CO)C[C@H]2C)cc1
  A: .	B: .	C: 17.2*	D: 17.4	E: 2.1	F: .
COc1ccc(NC(=O)N(C)C[C@@H]2Oc3ccc(NS(=O)(=O)c4cn(C)cn4)cc3C(=O)N([C@H](C)CO)C[C@H]2C)cc1
  A: .	B: .	C: -0.8	D: 4.4	E: active	F: .
COc1ccc(NC(=O)N(C)C[C@@H]2OCCCC[C@@H](C)Oc3ccc(NS(=O)(=O)c4ccc(C)cc4)cc3C(=O)N([C@H](C)CO)C[C@H]2C)cc1
  A: .	B: .	C: 6.9	D: 30.3	E: 1.2	F: .
O=C(C[C@@H]1C[C@@H]2c3cc(NC(=O)CC4CC4)ccc3O[C@@H]2[C@H](CO)O1)NCCc1ccccc1
  A: .	B: .	C: 1.1	D: 1.0	E: 0.4	F: .
O=C(NC1Cc2ccccc2C1)[C@@H]1[C@@H](CO)[C@@H]2Cn3c(ccc(-c4ccccc4F)c3=O)[C@H]1N2
  A: .	B: .	C: 1.7	D: .	E: 9.0	F: .
O=C1C=C(Nc2ccccc2C(=O)O)c2ccccc2C1=O
  A: -3.5	B: 76.4*	C: 0.9	D: -69.7	E: 36.4	F: 2.3
O=C1C=C(Nc2ccccc2)c2ccccc2C1=O
  A: 3.5	B: -3.0	C: .	D: .	E: .	F: -1.3
CCn1ncc(/C=N/N=C2\CCC3C4CCc5cc(O)ccc5C4CCC23C)c1C (stereo not drawn)
  A: -9.0	B: 46.5*	C: .	D: -20.2	E: 5.1	F: 0.0
Cc1c(/C=N/N=C2\CCC3C4CCc5cc(O)ccc5C4CCC23C)cnn1C (stereo not drawn)
  A: 18.0	B: -0.3	C: 4.3	D: -8.1	E: 5.4	F: -0.9
Cc1cc(C)cc(-n2ncc3c2CCCC3NC(=O)C2CCC2)c1 (stereo not drawn)
  A: -4.0	B: 52.9*	C: -3.7	D: -6.2	E: -2.0	F: -0.7
Cc1cc(C)cc(-n2ncc3c2CCCC3NC(=O)c2ccccc2)c1 (stereo not drawn)
  A: -4.8	B: .	C: 0.6	D: -26.8	E: .	F: .
O=C(C[C@@H]1CC[C@H](NC(=O)Cc2cccnc2)[C@H](CO)O1)Nc1ccc(-c2ccccc2)cc1
  A: .	B: .	C: -3.6	D: .	E: -3.4	F: .
CCN(CC)S(=O)(=O)c1ccc(O)c(NC(=O)CN2CCc3ccccc3C2)c1
  A: -4.4	B: 45.3*	C: .	D: .	E: -0.6	F: -1.7
NC(=S)NN=C1CCC2(CCCCC2)CC1
  A: 13.0	B: .	C: .	D: .	E: .	F: 0.1
CC1(C)CCC(=NNC(N)=S)CC1
  A: 4.8	B: -1.8	C: -1.6	D: -16.6	E: 21.5*	F: -0.4
O=C(CCN1C(=O)/C(=C/c2ccccc2F)SC1=S)Nc1cccnc1
  A: 12.7	B: -3.9	C: 0.0	D: -9.1	E: -0.2	F: 0.4
O=C(CCN1C(=O)/C(=C/C=C/c2ccccc2)SC1=S)Nc1ccccn1
  A: 3.2	B: -3.0	C: .	D: .	E: 1.3	F: -0.2
O=C(CCN1C(=O)/C(=C/C=C/c2ccccc2)SC1=S)Nc1cccnc1
  A: 56.7*	B: -2.1	C: .	D: .	E: -0.5	F: -1.4
O=C(CCN1C(=O)/C(=C\c2ccccc2Cl)SC1=S)Nc1cccnc1
  A: .	B: 66.4*	C: -5.1	D: -13.7	E: -8.3	F: -1.3
CCCNC(=O)COc1ccc(C=O)cc1
  A: .	B: .	C: 4.1	D: -13.3	E: -10.8	F: .
COCC(=O)NC[C@@H]1[C@H](c2ccccc2)[C@@H](CO)N1C(C)=O
  A: .	B: .	C: -2.6	D: 2.3	E: -2.6	F: .
Cc1ccccc1OCC(=O)Nc1ccccc1N1CCC(C)CC1
  A: -2.4	B: 1.7	C: .	D: .	E: 45.1*	F: 0.0
COc1ccc(CNC(=S)Nc2cccc(Cl)c2)cc1
  A: 53.4*	B: .	C: -0.2	D: -26.7	E: .	F: .
